Test results taken from article PMC7870662, “General synthetic strategy for regioselective ultrafast formation of disulfide bonds in peptides and proteins” (Nature Communications, 2021).

System: methicillin resistant staphylococcus aureus (MRSA)
Assay: Antimicrobial assay for plectasin (absorbance 600 nm, MRSA growth)
Format: cell-based
Conditions: 7 h, absorbance at 600 nm
Description: Fig. 4 Synthesis of plectasin employing our synthetic design. a HPLC-ESI MS analyses Reaction at time zero, the main peak corresponds to reduced plectasin with the observed mass 4801.1 ± 0.1 Da, calcd. 4801.0 Da (average isotopes). b Reaction after 10 s: the main peak corresponds to plectasin with single disulfide bond, with the observed mass 4798.2 ± 0.1 Da, calcd. 4798.0 Da (average isotopes). c Reaction after 8 min, the main peak corresponds to plectasin with two disulfide bonds with the observed mass 4526.2 ± 0.2 Da, calcd. 4527.0 Da (average isotopes). d Reaction after 13 min, the main peak corresponds to fully oxidized plectasin with the observed mass 4382.9 ± 0.1 Da, calcd. 4383.0 Da (average isotopes). e Plectasin activity assay: absorbance monitoring at 600 nm for methicillin resistant staphylococcus aureus (MRSA) growth after 7 h in the absence (in light blue) and presence (in light red) of synthetic plectasin and MRSA in the presence of trimethoprim (TMP) (in gray). […]
the protein solution was determined by Pierce® BCA Protein Assay Kit, Thermo
scientific. The circular dichroism spectrum was recorded in a Chirascan (Applied […]
The exact concentration of the protein solution was determined by Pierce® BCA
Protein Assay Kit, Thermo scientific. The circular dichroism spectrum was recorded in […]
absorbance readings at 600 nm to measure bacterial growth. […]

For `CCCC[C@@H]1NC(=O)[C@H](CC(=O)O)NC(=O)[C@H](CC(=O)O)NC(=O)[C@H](CCC(=O)O)NC(=O)[C@H](CC(=O)O)NC(=O)[C@H](Cc2c[nH]c3ccccc23)NC(=O)[C@@H]2CCCN2C(=O)CNC(=O)[C@H](CC(N)=O)NC(=O)[C@@H](NC(=O)CNC(=O)[C@H](Cc2ccccc2)NC(=O)CN)CSSC[C@@H]2NC(=O)[C@H](Cc3ccc(O)cc3)NC(=O)CNC(=O)CNC(=O)[C@H](CCCCN)NC(=O)[C@H](Cc3ccc(O)cc3)NC(=O)CNC(=O)[C@H](CCCCN)NC(=O)[C@H]([C@@H](C)CC)NC(=O)[C@H](CO)NC(=O)[C@H](CCCCN)NC(=O)[C@@H]3CSSC[C@@H](C(=O)N[C@@H](Cc4ccc(O)cc4)C(N)=O)NC(=O)[C@H](CCCCN)NC(=O)[C@H](CSSC[C@H](NC(=O)[C@H](CCC(N)=O)NC1=O)C(=O)N[C@@H](Cc1c[nH]cn1)C(=O)N[C@@H](CC(N)=O)C(=O)N[C@@H](Cc1c[nH]cn1)C(=O)N3)NC(=O)[C@H](C(C)C)NC(=O)[C@H](Cc1ccccc1)NC(=O)CNC(=O)CNC(=O)[C@H](CCCCN)NC(=O)[C@H](C)NC2=O` [plectasin], the IC50 (MRSA growth in LB medium, serial two-fold dilutions of synthetic plectasin, 37 °C in ambient air, n = 3 biologically independent samples) was 1500 to 2000 nM and the “biological antibiotic activity” value (synthetic plectasin, MRSA, LB medium, 37 °C, n = 3) was “exhibited the expected biological antibiotic activity”.
